“And” between values parts separate entries of the source, which are not always exact repeats. Equal values may be shown once. The list shows a part of the results, in another mix than the full data. Results filed as inconclusive are left out. The source made the active and inactive calls. Calls follow the shape of the dose curve; as a rule, active = well fitted cell-killing curve with a large enough effect in the repeat runs; inconclusive = weak or mixed curves, or effect the other way; inactive = flat fitted curve, though single readings scatter.
% is scaled to controls: 0 for no effect and ±100 for the full control effect.

A short description of the first experiment: qHTS RealTime-Glo MT Cell Viability Assay in HepG2 cells - 40 hour (AID 1224870). Also: nearly all actives have a fitted effect of over 50% in size. As to conditions: RealTime-Glo luminescence, at 35.3 µM (top of the series). An excerpt: National Center for Advancing Translational Sciences [NCATS]
NIH Chemical Genomics Center [NCGC]
U.S. Environmental Protection Agency [EPA]
National Institutes of Environmental Health Sciences [NIEHS]
National Toxicology Program [NTP]
U.S. Food and Drug Administration [FDA]
Measure of cell viability is critical in the cell-base assay. Analysis of cell viability is necessary for the characterization of cell responses to cytotoxic drugs and environmental stress. A RealTime-Glo MT Cell Viability Assay to monitor cell viability in real time of continues cell culture during 40 hours of compound treatment was used to screen Tox21 10K library compounds in HepG2 cells. The RealTime-Glo MT Cell Viability Assay is a nonlytic, homogeneous, bioluminescent method to measure cell viability in real time using a simple, plate-based method. The assay involves adding NanoLuc luciferase and a cell-permeant prosubstrate to cells in culture. Viable cells reduce the proprietary prosubstrate to generate a substrate for NanoLuc luciferase. This substrate diffuses from cells into the surrounding culture medium, where it is rapidly used by the NanoLuc Enzyme to produce a luminescent signal. The signal correlates with the number of viable cells, making the assay well suited for cytotoxicity studies.
Tox21 Assay Protocol Summary:
The mixture of HepG2 cell suspension and reagents were dispensed at 600cells/6 ul/well in 1536-well tissue culture treated black solid bottom plates using a Multidrop dispenser. After the assay plates were incubated at a 37 C/5% CO2 incubator for 5 hours, 23 nL of compounds dissolved in DMSO, positive and negative controls was transferred to the assay plate by a pintool work station. The plates were incubated at 37 C for 40 hours. The luminescence intensity were measured at 0h, 8h, 16h, 24h, 32h and 40h time points using ViewLux plate reader during compound treatment.
As for `OCCSCCO`, the activity change, negative = cytotoxic is inactive: 3.57%.

Still in this experiment, the particulars now being: RealTime-Glo luminescence, at 76.8 µM (top of the series).
On to `OCCSCCO`, for which the activity change, negative = cytotoxic was inactive: -1.08%.

The experiment is the same for the next values; noted with them: RealTime-Glo luminescence; at 76.8 µM (top of the series) unless noted.
As to `COc1ccc([N+](=O)[O-])cc1[N+](=O)[O-]`, the activity change, negative = cytotoxic was inactive: 2.25%.

Regarding `CC(C)OP(C)(=O)OC(C)C`, the activity change, negative = cytotoxic is inactive: 0.591% and inactive: 1.03%.

`Cc1ccc([N+](=O)[O-])c([N+](=O)[O-])c1`: the activity change, negative = cytotoxic was inactive: 0.11% and inactive: 1.6%.

`[NH4+].[O-][Cl+3]([O-])([O-])[O-]`: the activity change, negative = cytotoxic is inactive: 1.1% and inactive: 12.7%.

As to `Cc1cccc([N+](=O)[O-])c1[N+](=O)[O-]`, the activity change, negative = cytotoxic is inactive: 0.765% [at 35.3 µM].

For `CCOP(=O)(CC)Oc1ccc([N+](=O)[O-])cc1` (configuration not stated), the activity change, negative = cytotoxic is inactive: -3.01% [at 35.3 µM].

Regarding `CCOP(=O)(CC)OCC`, the activity change, negative = cytotoxic was inactive: 0.494%.

In the case of `Cc1c([N+](=O)[O-])cccc1[N+](=O)[O-]`, the activity change, negative = cytotoxic was inactive: 6.04% and inactive: 0.712%.

With `CCN(CC)CCCl`, the activity change, negative = cytotoxic is inactive: -2.38%.

In the case of `N=C(N)N[N+](=O)[O-]`, the activity change, negative = cytotoxic is inactive: 2.75%.

As for `CP(=O)(O)OCCC[Si](O)(O)O`, the activity change, negative = cytotoxic is inactive: 0.212%.

With `Cc1ccc([N+](=O)[O-])cc1[N+](=O)[O-]`, the activity change, negative = cytotoxic was inactive: -4.97% and inactive: 4.85%.

As to `N#CBr`, the activity change, negative = cytotoxic is inactive: 20.5%.

Regarding `CN(C)CCCl`, the activity change, negative = cytotoxic is inactive: -1.58%.

With `CC(C)N(CCO)C(C)C`, the activity change, negative = cytotoxic is inactive: -5.82%.

On to `C/C1=C2N=C(/C=C3N=C(/C(C)=C4\[N-][C@@](C)([C@@H]5N=C1[C@](C)(CCC(=O)NC[C@@H](C)OP(=O)([O-])O[C@H]1[C@@H](O)[C@@H](n6cnc7cc(C)c(C)cc76)O[C@@H]1CO)[C@H]5CC(N)=O)[C@@](C)(CC(N)=O)[C@@H]4CCC(N)=O)[C@@](C)(CC(N)=O)[C@@H]\3CCC(N)=O)C(C)(C)[C@@H]/2CCC(N)=O.[C-]#N.[Co+3]`, for which the activity change, negative = cytotoxic is inactive: -3.12% [at 35.3 µM].

In the case of `O=[N+]([O-])[O-].[NH4+]`, the activity change, negative = cytotoxic was inactive: 3.85% and inactive: 0.401%.

Turning to `Nc1cc([N+](=O)[O-])cc([N+](=O)[O-])c1O`, the activity change, negative = cytotoxic is inactive: -7.31%.

Turning to `COP(C)(=O)OC`, the activity change, negative = cytotoxic is inactive: 0.229% and inactive: 2.98%.

`O=[N+]([O-])OCC(CO[N+](=O)[O-])(CO[N+](=O)[O-])CO[N+](=O)[O-]`: the activity change, negative = cytotoxic is inactive: 0.488%.
